For one compound, LD50 confidence limits results are on record in patent US4012395A, “Process for preparing thiazolidinone acetic acid derivatives” (Warner-Lambert Company, priority 1974, dated 1977).

The data set has as its system rats. The conditions noted are these: rat, in vivo, iv.

Take `CCOC(=O)/C=C1\SC(N2CCCCC2)C(=O)N1C` (stereo not drawn) [Etozolin, ethyl-3-methyl-4-oxo-5-piperidino-Δ^2,α -thiazolidineacetate]: the LD50 confidence limits lay in the range of 45.9 to 69.5 mg/kg.
